Data taken from article PMC5458211, “Mitochondrial VDAC1-based peptides: Attacking oncogenic properties in glioblastoma” (Oncotarget, 2017).
pKd: −log10 of the molar value.

Molecular target: HK-II
Assay: Microscale thermophoresis (MST) binding to HK-II
Settings: HK-II 100 nM, peptide 1-100 μM, 20 min, PBS
Description: Figure 2 Mode of action of VDAC1-based peptides – interacting with- and detaching HK, releasing Cyto c, decreasing ATP level and inducing apoptosis A. Purified HK-II was fluorescently labeled using the NanoTemper protein-labeling Kit BLUE. HK-II (100 nM) was incubated with Tf-D-LP4 (1- 100 μM for 20 min). Then, 3-5 μl of the samples were loaded into MST-grade glass capillaries and thermophoresis was measured using a Monolith-NT115 apparatus, as described in Materials and methods available online in Supplemental information. […] B. Tf-D-LP4 and D-ΔN-Ter-Antp induce HK-I-GFP detachment. […] For HK detachment, U-87MG cells were incubated with or without the indicated concentration of Tf-D-LP4 and D-ΔN-Ter-Antp for 3 h, treated with digitonin (0.02%) and HK in the cytosolic fraction was analyzed by immunoblotting, as described in Materials and Methods available online in Supplemental information. […] The levels of HK in the supernatants were quantified and are presented as relative units. D. D-ΔN-Ter-Antp induces mitochondrial inner membrane depolarization analyzed as described in Materials and Methods available online in Supplemental information. […] Cells then were analyzed for Δψ using TMRM. Δψ is presented as percentage of control. […] Quantification of apoptosis in control and peptide's treated cells are presented bellow the images. […]

CC[C@H](C)[C@H](NC(=O)[C@H](C)NC(=O)[C@@H](N)Cc1c[nH]cn1)C(=O)N[C@@H](Cc1ccc(O)cc1)C(=O)N1CCC[C@H]1C(=O)N[C@@H](CCCNC(=N)N)C(=O)N[C@@H](Cc1c[nH]cn1)C(=O)N[C@@H](CO)C(=O)N[C@@H](Cc1c[nH]c2ccccc12)C(=O)N[C@H](C(=O)N[C@@H](Cc1c[nH]c2ccccc12)C(=O)N[C@@H](CCC(=O)O)C(=O)N[C@H](CCCCN)C(=O)N[C@H](CCCCN)C(=O)N[C@H](CC(C)C)C(=O)N[C@H](CCC(=O)O)C(=O)N[C@@H](C(=O)N[C@H](C)C(=O)N[C@@H](C(=O)N[C@H](CC(N)=O)C(=O)N[C@H](CC(C)C)C(=O)N[C@H](C)C(=O)N[C@H](Cc1c[nH]c2ccccc12)C(=O)N[C@@H](C(=O)N[C@H](C)C(=O)NCC(=O)N[C@H](CC(N)=O)C(=O)N[C@H](CO)C(=O)N[C@H](CC(N)=O)C(=O)N[C@@H](CCCCN)C(=O)N[C@@H](Cc1c[nH]c2ccccc12)C(=O)N[C@H](C(=O)N[C@@H](Cc1c[nH]c2ccccc12)C(=O)N[C@@H](CCCCN)C(=O)O)[C@@H](C)O)[C@H](C)O)C(C)C)[C@H](C)O)[C@@H](C)O [Tf-D-LP4]
pKd: 4.78
